We go through one compound from article PMC5652008 (EBioMedicine, 2017).

The nature of the series: Thermodynamic. The series is classed as physicochemical. Particulars: phosphate buffer, pH 6.5, Solubility pH 6.5, Table 1, phosphate buffer 0.05 M. A digest of the protocol:
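Equilibrium solubility measured in 0.05 M phosphate buffer, pH 6.5.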

Each structure is given as a SMILES string. A value given as a limit tells only on which side of the number the result lay.

For the compound `CCCCCCCCCCCCCCCC(=O)NCCCC[C@H](NC(=O)[C@H]1CCCN1C(=O)[C@H](CCC(=O)O)NC(=O)[C@H](C)NC(=O)[C@@H](NC(=O)C[C@H](O)[C@H](CC(C)C)NC(=O)[C@H](CC(N)=O)NC(=O)[C@@H](NC(=O)[C@H](CCC(=O)O)NC(=O)CNC(=O)[C@@H](CCCCN)NC(=O)CNC(=O)[C@@H](CCCCN)NC(=O)[C@@H]1CCCN1C(=O)[C@@H](NC(=O)[C@H](Cc1ccccc1)NC(=O)[C@H](Cc1ccc(O)cc1)NC(=O)[C@@H]1CCCN1C(=O)[C@@H](N)Cc1ccc(O)cc1)[C@@H](C)CC)C(C)C)C(C)C)C(N)=O` [Pep#11, Tyr-Pro-Tyr-Phe-Ile-Pro-DLys-Gly-DLys-Gly-Glu-Val-Asn-Sta-Val-Ala-Glu-DPro-Lys(Palmitoyl)-NH2], the thermodynamic solubility (usually the concentration in solution at equilibrium with solid) is > 3000 µg/mL.
